Molecular target: T1, Recombinant Bet v 1 (Bet v 1.0101) (Betula verrucosa, UniProt P15494 1-160)
T1 construct: Major birch pollen allergen Bet v 1, isoallergen Bet v 1.0101, from Betula verrucosa; In the internalisation assay it carried pHrodo Green (STP ester labelling, dye:protein about 10:1); also called major birch pollen allergen; source: E. coli, recombinant, as previously described [51,52]
T1 sequence (looked up): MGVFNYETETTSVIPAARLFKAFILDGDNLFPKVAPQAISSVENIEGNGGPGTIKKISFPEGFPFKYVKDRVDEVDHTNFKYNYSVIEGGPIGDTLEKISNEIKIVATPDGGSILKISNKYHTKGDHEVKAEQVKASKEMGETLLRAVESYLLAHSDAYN
Assay: far-Western, overlay or dot blot; Bet v 1 (0.5, 1 and 5 µg) and BLG (1 µg) spotted on nitrocellulose; strips incubated with antibody at 1 µg/mL in PBS with 0.1% Tween 20 for 1 h, room temperature; HRP-labelled anti-isotype detection
Conditions: both partners purified

binding result: binds
B1: M0418 IgE (antibody)
heavy: QVQLVQSGAEVKKPGESLKISCKGSEYSFPNYWIAWVRQMPGKGLEWMGMIYPGDSDTRYSPSFQGQVNISADKSSRTAFLEWSSLKASDSATYFCARLGGQLWNSYYYYYYMDVWGKGTTVTVSSASTQSPSVFPLTRCCKNIPSNATSVTLGCLATGYFPEPVMVTWDTGSLNGTTMTLPATTLTLSGHYATISLLTVSGAWAKQMFTCRVAHTPSSTDWVDNKTFSVCSRDFTPPTVKILQSSCDGGGHFPPTIQLLCLVSGYTPGTINITWLEDGQVMDVDLSTASTTQEGELASTQSELTLSQKHWLSDRTYTCQVTYQGHTFEDSTKKCADSNPRGVSAYLSRPSPFDLFIRKSPTITCLVVDLAPSKGTVNLTWSRASGKPVNHSTRKEEKQRNGTLTVTSTLPVGTRDWIEGETYQCRVTHPHLPRALMRSTTKTSGPRAAPEVYAFATPEWPGSRDKRTLACLIQNFMPEDISVQWLHNEVQLPDARHSTTQPRKTKGSGFFVFSRLEVTRAEWEQKDEFICRAVHEAASPSQTVQRAVSVNPGK
light: SYELTQPPSASGTPGQRVTISCSGSSSNIGGNTVNWYQQVPGTAPRLLIYKNNQRPSGVPDRFSGSKSGTSASLAISGLRSEDEADYYCEAWDGGLRGGVFGGGTKLTVLGKRTVAAPSVFIFPPSDEQLKSGTASVVCLLNNFYPREAKVQWKVDNALQSGNSQESVTEQDSKDSTYSLSSTLTLSKADYEKHKVYACEVTHQGLSSPVTKSFNRGEC
